Assay results taken from PubChem BioAssay (NCI).
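Five concentrations, 48 hours, 96-well plates. The concentration for full growth arrest is given as TGI.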

Columns and labels:
Test in all cases: growth of human tumour cells (NCI), 48 h
ACHN renal = test system: ACHN renal
MALME-3M melanoma = test system: MALME-3M melanoma
MDA-MB-435 = test system: MDA-MB-435
CCRF-CEM leukemia = test system: CCRF-CEM leukemia
SF-539 CNS = test system: SF-539 CNS
IGROV1 ovarian = test system: IGROV1 ovarian
SK-MEL-5 melanoma = test system: SK-MEL-5 melanoma
M14 melanoma = test system: M14 melanoma
HL-60(TB) leukemia = test system: HL-60(TB) leukemia
DU-145 prostate = test system: DU-145 prostate
HCT-15 colon = test system: HCT-15 colon
K-562 leukemia = test system: K-562 leukemia
HOP-62 NSCLC = test system: HOP-62 NSCLC
NCI-H322M lung = test system: NCI-H322M lung
KM12 colon = test system: KM12 colon
NCI-H522 lung = test system: NCI-H522 lung
CAKI-1 renal = test system: CAKI-1 renal
MDA-MB-231 breast = test system: MDA-MB-231 breast
SN12C renal = test system: SN12C renal
MCF7 breast = test system: MCF7 breast
SNB-75 CNS = test system: SNB-75 CNS
HT29 colon = test system: HT29 colon
COLO 205 colon = test system: COLO 205 colon
OVCAR-5 ovarian = test system: OVCAR-5 ovarian
OVCAR-8 ovarian = test system: OVCAR-8 ovarian
SF-295 CNS = test system: SF-295 CNS
SR leukemia = test system: SR leukemia
NCI-H460 lung = test system: NCI-H460 lung
UACC-257 melanoma = test system: UACC-257 melanoma
NCI-H226 lung = test system: NCI-H226 lung
NCI/ADR-RES ovarian = test system: NCI/ADR-RES ovarian
NCI-H23 lung = test system: NCI-H23 lung
A549 NSCLC = test system: A549 NSCLC
OVCAR-3 ovarian = test system: OVCAR-3 ovarian
786-0 renal = test system: 786-0 renal
EKVX NSCLC = test system: EKVX NSCLC
UO-31 renal = test system: UO-31 renal
SW-620 colon = test system: SW-620 colon
HCT-116 colon = test system: HCT-116 colon
HCC-2998 colon = test system: HCC-2998 colon
SNB-19 CNS = test system: SNB-19 CNS
TK-10 renal = test system: TK-10 renal
LOX IMVI melanoma = test system: LOX IMVI melanoma
U251 CNS = test system: U251 CNS
RXF 393 renal = test system: RXF 393 renal
SK-MEL-28 melanoma = test system: SK-MEL-28 melanoma
MDA-N = test system: MDA-N
RPMI-8226 leukemia = test system: RPMI-8226 leukemia
SF-268 CNS = test system: SF-268 CNS
HS 578T breast = test system: HS 578T breast

Measured: TGI

CNC(/N=C1\N(C)C(C)(C)P(=O)(O)N1C)NC
> 100 µM: all assays above
